Laboratory results from US10983137B2, “Diagnosis of leukocyte-mediated disease and halogen gas exposure” (dated 2021).

Assay: Mouse lung/plasma FALD-GSH analysis after bromine exposure
Conditions: mice, 600 ppm bromine for 30 min
Description: Plasma samples from mice exposed to bromine and chlorine were analyzed by LC/MS with SRM detection of FALD-GSH (including HDA-GSH and ODA-GSH) as described in the manuscript (Appendix A). […] . At indicated times plasma and lung was collected from these mice and the FALD-GSH was quantified. […] No adduct is observed in the plasma of mice exposed to air only (the first bar). […] By Ninety-six hours very little FALD-GSH is detectable.

With bromine the “amount of FALD-GSH adduct in plasma, 72 hr following exposure” value (72 hr) was “still detectable but has decreased”, the “FALD-GSH in plasma, 96 hours following exposure” value (96 hours) was “very little FALD-GSH is detectable” and the FALD-GSH in plasma (vs air only) was “robust increases”.
